Apparent affinities of Ab-14 variants for a coronavirus HR2 peptide

Antigen: PDVDLGDISGINAS, a 14-residue peptide of the SARS-CoV-2 spike HR2 region.

Parent scFv Ab-14: VH joined to VL by a (GGGGS)3 linker. Changes lie in the light chain CDRs alone.
VH: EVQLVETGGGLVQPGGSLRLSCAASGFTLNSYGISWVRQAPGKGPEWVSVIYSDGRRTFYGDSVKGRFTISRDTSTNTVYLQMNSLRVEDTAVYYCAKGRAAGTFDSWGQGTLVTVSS
VL: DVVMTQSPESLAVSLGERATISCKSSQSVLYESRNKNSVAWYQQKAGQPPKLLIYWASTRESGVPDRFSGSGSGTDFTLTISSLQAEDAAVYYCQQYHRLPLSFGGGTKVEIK

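The starting antibody came from a phage panning campaign against this peptide. The variants were designed computationally from a first round of random CDR variants and then made and measured. Their group label is 14L_GP_Gibbs (GP: Gaussian process model; Gibbs: Gibbs sampling; a sequence that several methods proposed may carry one label only). The assay is AlphaSeq: two haploid yeast populations carry antibody and antigen on their surface. The frequency of each diploid, read from paired DNA barcodes, reflects how well the two displayed proteins bind. The ratio of observed to expected reads was calibrated, replicate by replicate, on BCL2-family standards whose Kd was known from biolayer interferometry. Each pool was mated in six replicate cultures.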

Each variant's VL is given in full.
Numbers give log10(Kd / nM), so 0 is 1 nM and 3 is 1 µM. Smaller is tighter.
The mean shown is taken over the replicates in which the pair was detected.
"ND" means that the variant was in the library but no mating with the target was seen in that replicate; the authors take this as a sign of poor binding, and no number exists.
The authors averaged sequences with at least three values out of six and counted those with two or fewer as poor binders.
Of ten entries with the parent sequence, four were seen in most replicates (averages 0.34 to 2.37), three in one and three in none, so single entries are noisy.
As a blank, each scFv also met three strains without target: over all light chain designs, 4% of these pairings were detected, typically at 2.64 and seldom below 1.59. Also given: how often the same scFv was detected with the empty control strains, with their mean in brackets.
A sequence measured in both rounds can read differently, since the two assays cover different ranges.

| VL | log10 Kd, replicates | log10 Kd (nM), mean | control signals |
|---|---|---|---|
| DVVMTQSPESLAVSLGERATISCKSAYSELYESANKNSVAWYQQKAGQPPKLLIYSANTRESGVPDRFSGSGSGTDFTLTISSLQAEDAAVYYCQQYHRLPLSFGGGTKVEIK | 1.16 / 0.41 / 0.42 / 0.17 / 0.40 / 0.34 | 0.48 | 0 of 18 |
| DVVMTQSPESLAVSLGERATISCKLSQSEPYESRCANSVAWYQQKAGQPPKLLIYNASTRCEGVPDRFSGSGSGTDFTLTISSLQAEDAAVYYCQQYHRLPLSFGGGTKVEIK | 0.58 / 1.32 / 1.27 / 1.07 / 0.94 / 0.80 | 1.00 | 0 of 18 |
| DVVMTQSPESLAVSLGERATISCKVSMSVQYEARNKNSVAWYQQKAGQPPKLLIYEASTREDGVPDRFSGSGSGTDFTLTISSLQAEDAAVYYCQQYHRLPLSFGGGTKVEIK | 0.13 / 0.33 / 0.15 / 0.14 / 0.20 / 0.46 | 0.23 | 1 of 18 (2.97) |
| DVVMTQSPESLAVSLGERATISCKLYQSNKYESRMKNSVAWYQQKAGQPPKLLIYNASQRMQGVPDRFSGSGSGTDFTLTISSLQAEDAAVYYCQQYHRLPLSFGGGTKVEIK | 1.07 / 0.63 / 0.82 / 1.03 / 1.11 / 0.83 | 0.91 | 1 of 18 (3.17) |
| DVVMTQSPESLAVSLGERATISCKFDQSWLYESRNKNNVAWYQQKAGQPPKLLIYHASQRCSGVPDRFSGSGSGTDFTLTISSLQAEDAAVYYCQQYHRLPLSFGGGTKVEIK | 0.34 / -0.23 / 0.18 / 0.61 / 0.29 / 0.69 | 0.31 | 0 of 18 |
| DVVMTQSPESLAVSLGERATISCKVSQKNLYESRMKNSVAWYQQKAGQPPKLLIYNASLRESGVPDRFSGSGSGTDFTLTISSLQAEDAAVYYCQQYHRLPLSFGGGTKVEIK | 0.14 / -0.01 / -0.09 / -0.07 / -0.16 / 0.07 | -0.02 | 0 of 18 |
| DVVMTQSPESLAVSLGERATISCKSSMSWEYESRNSNSVAWYQQKAGQPPKLLIYHASTREDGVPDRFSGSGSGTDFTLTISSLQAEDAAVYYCQQYHRLPLIFGGGTKVEIK | 0.48 / 0.19 / 0.40 / 0.45 / 0.52 / 0.48 | 0.42 | 2 of 18 (3.51) |
| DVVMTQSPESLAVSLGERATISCKHSLSVELESRLKNSVAWYQQKAGQPPKLLIYEASTRCEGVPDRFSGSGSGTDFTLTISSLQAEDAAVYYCQQYHRLPLSFGGGTKVEIK | 0.66 / 0.86 / 0.60 / 0.31 / 0.37 / 0.84 | 0.61 | 1 of 18 (3.40) |
| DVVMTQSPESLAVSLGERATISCKWEWSQLYESRNKNSVAWYQQKAGQPPKLLIYNASLRMSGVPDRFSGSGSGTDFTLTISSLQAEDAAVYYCQQYHRLPLSFGGGTKVEIK | 0.48 / 0.52 / 0.52 / 0.28 / 0.38 / 0.60 | 0.46 | 4 of 18 (3.18) |
| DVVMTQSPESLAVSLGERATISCKLSSSWLMEQRNVNSVAWYQQKAGQPPKLLIYQASQRLLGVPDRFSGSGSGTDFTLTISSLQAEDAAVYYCQQYHRLPLSFGGGTKVEIK | 0.03 / 0.05 / 0.06 / -0.12 / -0.15 / 0.15 | 0.00 | 0 of 18 |
| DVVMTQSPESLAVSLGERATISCKLMQSDLYESRMQNNVAWYQQKAGQPPKLLIYDASTRMSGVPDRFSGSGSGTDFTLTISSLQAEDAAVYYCQQYHRLPLSFGGGTKVEIK | 0.23 / 0.07 / 0.00 / -0.09 / 0.24 / 0.13 | 0.10 | 0 of 18 |
| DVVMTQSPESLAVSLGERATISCKVSQSELGQERNKMSVAWYQQKAGQPPKLLIYQASTREDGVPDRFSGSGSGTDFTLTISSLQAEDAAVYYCQQYHRLPLSFGGGTKVEIK | 0.31 / 0.55 / 0.40 / 0.36 / 0.57 / 0.55 | 0.46 | 1 of 18 (2.31) |
| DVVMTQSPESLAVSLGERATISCKLMMSGLYESRNSNSVAWYQQKAGQPPKLLIYNASTREQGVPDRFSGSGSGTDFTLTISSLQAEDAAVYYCQQYHRLPLSFGGGTKVEIK | 0.09 / -0.04 / -0.30 / 0.11 / -0.05 / 0.01 | -0.03 | 0 of 18 |
| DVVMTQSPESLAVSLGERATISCKVDQWVEYGSRNKNSVAWYQQKAGQPPKLLIYSASQRFSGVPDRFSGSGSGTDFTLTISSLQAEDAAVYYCQQYHRLPLSFGGGTKVEIK | 0.67 / 0.96 / 0.58 / 1.70 / 1.40 / 0.82 | 1.02 | 2 of 18 (1.89) |
| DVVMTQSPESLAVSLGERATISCKSQQSVLYESRNSNSVAWYQQKAGQPPKLLIYNASTRELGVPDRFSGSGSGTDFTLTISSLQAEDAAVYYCQDYHRLPLSFGGGTKVEIK | 0.59 / 0.65 / 0.51 / 0.48 / 0.84 / 0.66 | 0.62 | 0 of 18 |
| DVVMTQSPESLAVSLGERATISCKLSQSELYESRNKNSVAWYQQKAGQPPKLLIYSASTRCEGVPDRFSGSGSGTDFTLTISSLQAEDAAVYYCQQYHRLPLSFGGGTKVEIK | -0.13 / -0.39 / -0.36 / -0.45 / -0.29 / -0.26 | -0.31 | 0 of 18 |
| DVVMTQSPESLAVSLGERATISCKSSGSVLYEDKNVNSVAWYQQKAGQPPKLLIYHASQRLSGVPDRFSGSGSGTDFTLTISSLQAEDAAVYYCQQYHRLPLSFGGGTKVEIK | 1.29 / 1.08 / 0.57 / 0.39 / 0.72 / 1.52 | 0.93 | 0 of 18 |
| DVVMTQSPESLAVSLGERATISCKLSQSQLYESRNKNSVAWYQQKAGQPPKLLIYEAHHREHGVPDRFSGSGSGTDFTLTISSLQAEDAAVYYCQQYHRLPLSFGGGTKVEIK | -0.03 / -0.10 / -0.24 / -0.30 / -0.24 / -0.01 | -0.15 | 1 of 18 (2.78) |
| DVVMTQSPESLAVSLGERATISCKLSMQVMMESRNKNSVAWYQQKAGQPPKLLIYSANTREEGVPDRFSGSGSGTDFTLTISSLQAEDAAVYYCQQYHRLPLSFGGGTKVEIK | ND / ND / ND / ND / ND / ND | ND | 0 of 18 |
| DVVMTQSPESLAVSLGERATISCKLMQSMWYESRNKNSVAWYQQKAGQPPKLLIYHASEREQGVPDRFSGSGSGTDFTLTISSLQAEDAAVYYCQQYHRLPLQFGGGTKVEIK | -0.17 / -0.09 / -0.14 / -0.30 / -0.26 / -0.15 | -0.19 | 2 of 18 (2.97) |
| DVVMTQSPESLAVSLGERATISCKVSQLDNGESRNHNSVAWYQQKAGQPPKLLIYHASTRLSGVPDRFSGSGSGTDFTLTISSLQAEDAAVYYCQQYHRLPLSFGGGTKVEIK | 0.45 / 0.55 / 0.39 / 0.17 / 0.67 / 0.83 | 0.51 | 0 of 18 |
| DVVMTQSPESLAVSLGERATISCKLQQWDLYEGRNKNSVAWYQQKAGQPPKLLIYSASTRSDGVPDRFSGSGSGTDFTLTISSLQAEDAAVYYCQQYHRLPLSFGGGTKVEIK | 0.15 / -0.16 / -0.42 / -0.43 / -0.25 / -0.35 | -0.24 | 0 of 18 |
| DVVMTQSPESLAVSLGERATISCKLSMSEGYESRMKNSVAWYQQKAGQPPKLLIYEASQREEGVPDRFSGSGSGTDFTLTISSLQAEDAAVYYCQQYHRLPLSFGGGTKVEIK | -0.11 / -0.08 / -0.09 / -0.22 / -0.29 / -0.06 | -0.14 | 1 of 18 (1.68) |
| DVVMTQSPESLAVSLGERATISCKMSQSALMEPRNKNSVAWYQQKAGQPPKLLIYNASQRQMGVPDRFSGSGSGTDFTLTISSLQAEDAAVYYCQQYHRLPLSFGGGTKVEIK | 0.12 / -0.19 / -0.04 / -0.16 / -0.07 / -0.06 | -0.07 | 2 of 18 (2.66) |
| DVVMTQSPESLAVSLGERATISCKLSFSCLYESRMKNSVAWYQQKAGQPPKLLIYNASTRYSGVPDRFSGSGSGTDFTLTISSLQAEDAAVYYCQQYHRLPLSFGGGTKVEIK | 0.89 / 0.83 / 0.83 / 0.55 / 0.78 / 0.68 | 0.76 | 1 of 18 (3.14) |
| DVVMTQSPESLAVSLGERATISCKTEVSDLYESRNKNSVAWYQQKAGQPPKLLIYNASERESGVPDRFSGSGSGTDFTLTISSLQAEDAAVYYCQQYHRLPLSFGGGTKVEIK | 0.03 / -0.30 / -0.13 / -0.08 / -0.22 / 0.37 | -0.05 | 1 of 18 (2.72) |

For reference, 2 entries of the list once more:

| VL | log10 Kd, replicates | log10 Kd (nM), mean | control signals |
|---|---|---|---|
| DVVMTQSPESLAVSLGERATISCKVSQSELGQERNKMSVAWYQQKAGQPPKLLIYQASTREDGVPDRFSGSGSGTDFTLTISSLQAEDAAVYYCQQYHRLPLSFGGGTKVEIK | 0.31 / 0.55 / 0.40 / 0.36 / 0.57 / 0.55 | 0.46 | 1 of 18 (2.31) |
| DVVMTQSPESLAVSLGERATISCKMSQSALMEPRNKNSVAWYQQKAGQPPKLLIYNASQRQMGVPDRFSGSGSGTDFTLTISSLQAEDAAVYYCQQYHRLPLSFGGGTKVEIK | 0.12 / -0.19 / -0.04 / -0.16 / -0.07 / -0.06 | -0.07 | 2 of 18 (2.66) |

Values reported by Li et al. 2023, doi:10.1038/s41467-023-39022-2 (FLAb copy).